AlphaSeq binding of Ab-14 light chain variants to a spike HR2 peptide

Data: MIT Lincoln Laboratory AlphaSeq set, Engelhart et al. 2022, doi:10.1038/s41597-022-01779-4, as distributed in FLAb.

All variants were tested on one target, the spike HR2 peptide PDVDLGDISGINAS (SARS-CoV-2).

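The starting antibody came from a phage panning campaign against this peptide. In library AAYL50, one, two or three CDR residues were substituted; doubles and triples were drawn at random. The assay is AlphaSeq: two haploid yeast populations carry antibody and antigen on their surface. Pairs that bind mate more often; barcode pairs of the diploids are counted by sequencing. The ratio of observed to expected reads was calibrated, replicate by replicate, on BCL2-family standards whose Kd was known from biolayer interferometry. The assay was run in three technical replicates.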

Parent: Ab-14, a human scFv built as VH, a 15-residue (Gly4Ser)3 linker, VL. Only the CDRs of the light chain vary.
VH: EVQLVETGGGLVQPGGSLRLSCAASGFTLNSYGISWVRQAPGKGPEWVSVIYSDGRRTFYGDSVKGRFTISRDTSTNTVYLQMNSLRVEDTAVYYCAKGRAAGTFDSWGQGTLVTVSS
VL: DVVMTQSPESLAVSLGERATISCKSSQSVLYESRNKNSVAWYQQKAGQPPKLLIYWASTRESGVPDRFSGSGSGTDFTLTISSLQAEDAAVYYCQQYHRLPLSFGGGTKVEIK

Changes read parent residue, position, new residue, counted from the first residue of the VL shown.
Affinities are written as log10 Kd with Kd in nM; a lower number is a better binder.
A pair that was not seen in that replicate is written "n.d."; this usually means weak binding, but a binder can also be missed.

{"changes": "S25W/A57H/S62C", "log10 Kd, replicates": "n.d. / n.d. / n.d.", "signal with controls": "0 of 9"}
{"changes": "V29Y/E32K", "log10 Kd, replicates": "3.11 / 2.62 / 4.00", "signal with controls": "2 of 9 (3.99)"}
{"changes": "K36D/V39I/S58V", "log10 Kd, replicates": "0.77 / 1.00 / 0.88", "signal with controls": "1 of 9 (5.04)"}
{"changes": "K36S/L100N/P101A", "log10 Kd, replicates": "2.53 / 2.01 / 0.97", "signal with controls": "0 of 9"}
{"changes": "E32N/K36W/Y97W", "log10 Kd, replicates": "0.82 / 1.08 / 0.91", "signal with controls": "2 of 9 (3.66)"}
{"changes": "E32M/T59P/P101T", "log10 Kd, replicates": "n.d. / n.d. / n.d.", "signal with controls": "0 of 9"}
{"changes": "V39T/R60L/P101N", "log10 Kd, replicates": "n.d. / n.d. / n.d.", "signal with controls": "0 of 9"}
{"changes": "S33W/S38P/A57I", "log10 Kd, replicates": "3.69 / n.d. / n.d.", "signal with controls": "3 of 9 (4.48)"}
{"changes": "L30P/E32V/S62I", "log10 Kd, replicates": "1.41 / 1.58 / 1.55", "signal with controls": "1 of 9 (2.95)"}
{"changes": "Y31L/R60E/L100S", "log10 Kd, replicates": "n.d. / n.d. / n.d.", "signal with controls": "0 of 9"}
{"changes": "K24E/S38R/A40Y", "log10 Kd, replicates": "n.d. / n.d. / n.d.", "signal with controls": "0 of 9"}
{"changes": "K24A/S25N/S103P", "log10 Kd, replicates": "6.45 / 5.49 / 4.45", "signal with controls": "5 of 9 (4.36)"}
{"changes": "K24Y/S28D", "log10 Kd, replicates": "1.10 / 1.34 / 1.25", "signal with controls": "1 of 9 (4.48)"}
{"changes": "S62I/L102N/S103G", "log10 Kd, replicates": "n.d. / 4.48 / n.d.", "signal with controls": "0 of 9"}
{"changes": "S38Q/Q95T/S103E", "log10 Kd, replicates": "n.d. / n.d. / n.d.", "signal with controls": "1 of 9 (2.92)"}
{"changes": "R60E/P101Q/L102H", "log10 Kd, replicates": "n.d. / n.d. / n.d.", "signal with controls": "0 of 9"}
{"changes": "K36P/R60Y/E61H", "log10 Kd, replicates": "n.d. / n.d. / n.d.", "signal with controls": "1 of 9 (3.53)"}
{"changes": "R34K/Q95W/R99M", "log10 Kd, replicates": "n.d. / n.d. / 4.29", "signal with controls": "0 of 9"}
{"changes": "Q27C/V29C/P101C", "log10 Kd, replicates": "n.d. / n.d. / n.d.", "signal with controls": "1 of 9 (3.71)"}
{"changes": "E32L/S62C/L100F", "log10 Kd, replicates": "n.d. / 3.51 / n.d.", "signal with controls": "1 of 9 (4.19)"}
{"changes": "N35E/Q96S/P101W", "log10 Kd, replicates": "n.d. / n.d. / n.d.", "signal with controls": "2 of 9 (4.96)"}
{"changes": "S26V/N37F/R60D", "log10 Kd, replicates": "n.d. / 3.75 / 5.43", "signal with controls": "4 of 9 (4.11)"}

From the list, the first 3 with no signal in any replicate:

changes,"log10 Kd, replicates",signal with controls
S25W/A57H/S62C,n.d. / n.d. / n.d.,0 of 9
E32M/T59P/P101T,n.d. / n.d. / n.d.,0 of 9
V39T/R60L/P101N,n.d. / n.d. / n.d.,0 of 9

Three control strains display no target. For library AAYL50, 18% of the pairings with them gave a signal, with a median of 4.19 and one signal in twenty below 2.99, so weak values seen in few replicates may be background. For each scFv, signals with the empty controls are counted beside the result, with their mean in brackets.